Measured values from PubChem BioAssay AID651674 (The Scripps Research Institute Molecular Screening Center, 2012).
The entries are a selection whose mix differs from that of the whole data set. The source made the active and inactive calls.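 Rule for the calls: active = mean inhibition across replicate wells exceeding the computed hit threshold (cut at about 13% in these data); inactive = the rest.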

Amino acid sequences for entries named in this document (tags omitted).
UniProt P41235, whole entry: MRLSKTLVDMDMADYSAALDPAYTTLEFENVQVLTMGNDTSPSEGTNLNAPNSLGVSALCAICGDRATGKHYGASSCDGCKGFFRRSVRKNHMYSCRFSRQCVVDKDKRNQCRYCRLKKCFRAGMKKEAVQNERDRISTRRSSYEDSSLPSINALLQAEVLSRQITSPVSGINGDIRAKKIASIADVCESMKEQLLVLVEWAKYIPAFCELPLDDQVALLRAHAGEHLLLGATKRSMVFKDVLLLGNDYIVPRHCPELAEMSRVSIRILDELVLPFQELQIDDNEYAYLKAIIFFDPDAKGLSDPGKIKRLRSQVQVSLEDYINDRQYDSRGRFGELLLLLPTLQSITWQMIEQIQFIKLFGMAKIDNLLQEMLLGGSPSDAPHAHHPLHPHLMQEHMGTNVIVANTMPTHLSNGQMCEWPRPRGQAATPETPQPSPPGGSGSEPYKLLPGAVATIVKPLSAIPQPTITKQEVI

molecular target: Hepatocyte nuclear factor 4-alpha (Homo sapiens) (UniProt P41235); assay: blockers of HNF4 self-association – biochemical, split-luciferase complementation, luminescence, counter-screen for ABHD5-PLIN5 interaction inhibitor project (AID 651674); conditions: HNF4 dimerization, at 4 µM, stronger effect = higher value;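 note: light from luciferase halves that rejoin when HNF4 fusion proteins dimerize; 0% = DMSO only wells and the 100% control is not given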

Compound	inhibition
CCC(=O)N(c1ccccc1)C1(COC)CCN(CCc2cccs2)CC1	active: 30.4%
